# Laboratory results reported in PubChem BioAssay AID540253 (National Center for Advancing Translational Sciences (NCATS), 2011).
# Only a part is listed here, and it is no random draw. Records with an inconclusive call do not appear. Calls of active or inactive are those of the source. Calls come from the whole dose curve.
# Target: Snurportin-1 (Homo sapiens) + GTP-binding nuclear protein Ran (Homo sapiens) + Importin subunit beta-1 (Homo sapiens) (UniProt O95149+P62826+Q14974)
# Assay: qHTS Assay for Inhibitors of RanGTP induced Rango (Ran-regulated importin-beta cargo) - Importin beta complex dissociation; note: % of control where 0% means no effect; nearly all actives have a fitted effect of over 45% in size
# Details: Biochemical FRET Rango-importin beta; at 46.1 µM (top of the series)
row,SMILES,"activity change, negative = inhibition"
1,CP(=O)(Nc1ccccc1F)Oc1ccccc1 (stereo not drawn),inactive: 0.128%
2,CC(C)(C)C(=O)NC(Sc1ccccc1)C(Cl)(Cl)Cl (stereo not drawn),inactive: -0.582%
3,CC(C)c1ccc(OP(C)(=O)Nc2ccc(SC(F)(F)F)cc2)cc1 (stereo not drawn),inactive: 4.28%
4,CC(=O)c1ccc(N2CC2c2ccncc2)cc1 (stereo not drawn),inactive: -8.35%
5,COC(=O)C1(C)COP(=O)(NCc2ccccc2)OC1 (stereo not drawn),inactive: -1.25%
6,Cc1ccccc1CN(C)C(=O)COC(=O)C(O)(c1ccccc1)c1ccccc1,inactive: 17.4%
7,O=C(OCCN1CCN(CCOCc2ccccc2)CC1)C(O)(c1ccccc1)c1ccccc1,inactive: 0.0737%
8,C[C@H]1OP(=O)(Oc2ccccc2)C[C@@H]2O[C@@H]21 (stereo partly drawn),inactive: 0.893%
9,C[C@@H]1C=CCP(=O)(Oc2ccccc2)O1 (stereo partly drawn),inactive: 12.6%
10,CC(=O)Nc1ccc([As](=O)(O)O)c(O)c1,inactive: 1.35%
11,CC(=O)Nc1ccc(Oc2c([N+](=O)[O-])cc([N+](=O)[O-])cc2[N+](=O)[O-])cc1,inactive: -2.14%
12,CP(=O)(Nc1ccc(SC(F)(F)F)cc1)Oc1ccc(F)cc1 (stereo not drawn),inactive: -7.55%
13,CC(C)C(=O)NC(Sc1ccccc1)C(Cl)(Cl)Cl (stereo not drawn),inactive: -23.9%
14,O=P(Nc1nccs1)(c1ccccc1)c1ccccc1,inactive: 4.79%
15,CCOP(C)(=S)SCC(=O)NC(C)(CC)C(=O)O (stereo not drawn),inactive: -4.06%
16,c1nnnn1CCn1cnnn1,inactive: -1.05%
17,CP(=O)(Nc1ccc2c(c1)OCCO2)Oc1ccccc1 (stereo not drawn),inactive: -15%
18,Cc1ccccc1NP(C)(=O)Nc1ccccc1C,inactive: 7.66%
19,COc1ccc(OP(C)(=O)Nc2cccc(Br)c2)cc1 (stereo not drawn),inactive: -5.7%
20,COc1ccc(N)c([N+](=O)[O-])c1[N+](=O)[O-],inactive: 23.1%
21,O=P(Nc1ccccn1)(c1ccc(Br)cc1)c1ccc(Br)cc1,inactive: 7.21%
22,CN(C)C1(CNC(=O)c2ccc(Cl)c(S(N)(=O)=O)c2)CCCCC1,inactive: 0.0616%
23,CN(C)CCOC(=O)C(O)(c1ccccc1)C1CCCCC1 (stereo not drawn),inactive: -1.84%
24,O=P(Nc1nc2ccccc2s1)(c1ccccc1)c1ccccc1,inactive: 2.22%

row,SMILES,"activity change, negative = inhibition"
1,C[C@H]1OP(=O)(Oc2ccccc2)[C@H](O)[C@H](O)[C@H]1N=[N+]=[N-] (stereo partly drawn),inactive: -2.24%
2,COc1ccc(NP(C)(=O)Oc2ccccc2OC)cc1 (stereo not drawn),inactive: -15.8%
3,O=[N+]([O-])c1ccc(O)c(/C=N/Nc2ccc([N+](=O)[O-])cc2[N+](=O)[O-])c1,inactive: -12.3%
4,O=[N+]([O-])c1ccc(OP2(=O)COCCO2)cc1 (stereo not drawn),inactive: 12.7%
5,CC(=O)NC(SC(=S)N(C)C)C(Cl)(Cl)Cl (stereo not drawn),inactive: 0.79%
6,O=[N+]([O-])c1ncn(CCn2cnc([N+](=O)[O-])n2)n1,inactive: -0.92%
7,O=[As](O)(c1ccccc1)c1ccc(O)cc1,inactive: 2.09%
8,Cc1cc(-c2cccc3ccccc23)c(C)cn1.O=[N+]([O-])c1cc([N+](=O)[O-])c(O)c([N+](=O)[O-])c1,inactive: -5.09%
9,Cc1c(C(c2ccc3c(c2)OCO3)c2c(C)n(C)n(-c3ccccc3)c2=O)c(=O)n(-c2ccccc2)n1C.O=[N+]([O-])c1cc([N+](=O)[O-])c(O)c([N+](=O)[O-])c1,inactive: 8.1%
10,C(Cc1nn[nH]n1)Cc1nn[nH]n1,inactive: -11.4%
11,Nc1ccc([As](=O)(O)c2ccc([N+](=O)[O-])cc2)cc1,inactive: 1.43%
12,O=C(OC1CN2CCC1CC2)c1cccc(Cl)c1 (stereo not drawn),inactive: 1.08%
13,Nc1ccc2c(ccc3cccnc32)n1.O=[N+]([O-])c1cc([N+](=O)[O-])c(O)c([N+](=O)[O-])c1,inactive: 6.17%
14,O=P1(N(CCCl)CCCl)OCCCS1 (stereo not drawn),inactive: -8.64%
15,CCOC(=O)c1ccc(NP(C)(=O)Oc2ccc(Cl)cc2)cc1 (stereo not drawn),inactive: -11.5%
16,O=C(Nc1cc([As](=O)(O)O)ccc1O)c1ccccc1,inactive: 0.154%
17,CP(=O)(OC12CC3CC(CC(C3)C1)C2)OC12CC3CC(CC(C3)C1)C2,inactive: -4.59%
18,CC(C)(C)C(=O)NC(Sc1ccncn1)C(Cl)(Cl)Cl (stereo not drawn),inactive: 17.6%
19,O=[N+]([O-])c1ncn(CCn2ncnc2[N+](=O)[O-])n1,inactive: -8.34%
20,COC(=O)C1(C)COP(=O)(Nc2ccccc2)OC1 (stereo not drawn),inactive: -2.37%
21,O=[N+]([O-])c1cccc(NC2=NCC(CBr)S2)c1 (stereo not drawn),inactive: -1.67%
22,O=C(O)CNc1ccc([As](=O)(O)O)cc1,inactive: -4.11%
23,CCN(CC)CC(O)COC(=O)C(O)(c1ccccc1)C1CCCCC1 (stereo not drawn),inactive: -20.3%
24,COc1ccc(C2=NCC(CBr)S2)cc1 (stereo not drawn),inactive: 0.44%
